Antibody variant affinities, Ab-14 light chain, assay B

Target: peptide PDVDLGDISGINAS, taken from heptad repeat 2 (HR2) of SARS-CoV-2 spike.

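The starting antibody came from a phage panning campaign against this peptide. These sequences belong to a second round, designed from the earlier measurements on random variants of the parent. Several design methods are mixed in this list. Affinity was read by AlphaSeq, a pooled yeast mating assay with surface-displayed partners. The frequency of each diploid, read from paired DNA barcodes, reflects how well the two displayed proteins bind. Scores were corrected for input abundance and mapped to Kd with protein pairs of known affinity run in the same pool. The assay was run in six technical replicates.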

Ab-14 is the parent antibody, in scFv form: VH, then a (GGGGS)3 linker, then VL. The heavy chain is unchanged in all variants.
VH: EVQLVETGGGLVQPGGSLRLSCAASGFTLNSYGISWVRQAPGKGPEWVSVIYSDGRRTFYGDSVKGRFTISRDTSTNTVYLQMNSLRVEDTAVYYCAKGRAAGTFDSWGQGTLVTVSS
VL: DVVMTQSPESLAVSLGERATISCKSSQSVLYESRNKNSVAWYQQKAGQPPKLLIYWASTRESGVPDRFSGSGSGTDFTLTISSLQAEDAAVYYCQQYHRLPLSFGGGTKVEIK

Substitutions are numbered in sequence along the VL above, starting at 1 (not Kabat). This list holds designs with at most six substitutions. Kd is apparent (estimated from mating counts) and averaged on the log scale over replicates with a signal. Smaller is tighter. "nd" means that the variant was in the library but no mating with the target was seen in any replicate; the authors take this as a sign of poor binding, and no number exists. Of ten entries with the parent sequence, four were seen in most replicates (averages 2.2 nM to 240 nM), three in one and three in none, so single entries are noisy. In the paper, a design with two or fewer of six values counts as a poor binder. Values of this round are not directly comparable with the first-round values of the same sequences. Background: pairings of all light chain designs with three empty control strains gave a value in 4% of cases (median 430 nM, 5th percentile 38 nM). Values in that range, when seen in few replicates, are hard to tell from nonspecific mating.

Variant R34D/S38N/W56N/E61Q/R99I gave 4.2 nM (6 of 6 replicates).
Variant Y31K/N37E/S103C gave nd (0 of 6 replicates).
Variant S25L/L30M/W56N/T59Q gave 450 pM (6 of 6 replicates).
Variant S25Q/W56N gave 1.6 nM (6 of 6 replicates).
Variant R34M/E61N/H98A gave 18 nM (6 of 6 replicates).
Variant S25L/S33E/W56G/T59Q gave 530 pM (6 of 6 replicates).
Variant S25F/V29T/W56N/S58Q/E61L/S62W gave 2.9 nM (6 of 6 replicates).
Variant R34D/S103I gave nd (0 of 6 replicates).
Variant S25L/V29W/W56N/T59E gave 530 pM (6 of 6 replicates).
Variant S25V/V29W/W56G/T59A/S62V gave 360 pM (6 of 6 replicates).
Variant S25L/S28Q/W56N gave 810 pM (6 of 6 replicates).
Variant V29T/L30P/Y31M/S38N gave nd (0 of 6 replicates).
Variant K24H/Q27P/W56Y gave 30 nM (6 of 6 replicates).
Variant Y31M/S33P/W56D gave 2.2 nM (6 of 6 replicates).
Variant S25F/V29K/N35W/W56G/T59Q gave 6.9 nM (6 of 6 replicates).
Variant K24H/Q27P/L30M/W56N gave 690 pM (6 of 6 replicates).
Variant S25L/L30E/N35D/W56M/S58Q/E61L gave 4.8 nM (6 of 6 replicates).
Variant V29W/W56N/T59F gave 310 pM (6 of 6 replicates).
Variant W56A/Q96S/R99W/P101C gave nd (0 of 6 replicates).
Variant R34M/W56N/E61M gave 3.0 nM (6 of 6 replicates).
Variant Q96E/R99M/L102N gave nd (0 of 6 replicates).
Variant S25L/Q27F/V29E/Y31F/W56D gave 740 pM (6 of 6 replicates).
Variant S25L/S26V/V29N/K36T/W56N/T59Q gave 1.7 nM (6 of 6 replicates).
Variant S25L/S26P/W56G/S62D/Q96S gave 850 pM (6 of 6 replicates).
Variant S25L/S26P/W56N/T59Q/S62D gave 650 pM (6 of 6 replicates).
Variant K24M/V29W/W56G/Q96D gave 2.2 nM (6 of 6 replicates).
Variant S25L/V29G/S33M/N37M/W56Q/T59Q gave 1.1 nM (6 of 6 replicates).
Variant V29D/E61Q gave 83 nM (6 of 6 replicates).
Variant S25L/S33T/W56N/T59Q gave 800 pM (6 of 6 replicates).
Variant S25V/S103L gave 5.9 nM (6 of 6 replicates).
Variant S25I/R34P/W56Q gave 790 pM (6 of 6 replicates).
Variant S25F/V29D/S33D/R34G/W56N/E61C gave 1.2 nM (6 of 6 replicates).
Variant Q27E/V29R/K36F/S58H/S103E gave 190 nM (3 of 6 replicates).
Variant S25M/L30D/K36M gave 1.9 nM (6 of 6 replicates).
Variant S25L/L30M/Y31M/W56E gave 500 pM (6 of 6 replicates).
Variant S26D/V29E/Y31E/S33Q/W56S/E61M gave 2.1 nM (6 of 6 replicates).
Variant S25V/S28E/V29Q/W56D gave 300 pM (6 of 6 replicates).
Variant S25V/S26P/V29Q/W56N/T59Q gave 2.2 nM (6 of 6 replicates).
Variant S25L/S26P/V29H/W56N gave 610 pM (6 of 6 replicates).
Variant V39I gave 250 nM (2 of 6 replicates).

Excerpt, the final 7 entries:

changes,apparent Kd,replicates with signal
S25M/L30D/K36M,1.9 nM,6 of 6
S25L/L30M/Y31M/W56E,500 pM,6 of 6
S26D/V29E/Y31E/S33Q/W56S/E61M,2.1 nM,6 of 6
S25V/S28E/V29Q/W56D,300 pM,6 of 6
S25V/S26P/V29Q/W56N/T59Q,2.2 nM,6 of 6
S25L/S26P/V29H/W56N,610 pM,6 of 6
V39I,250 nM,2 of 6

Source: Li et al. 2023 (doi:10.1038/s41467-023-39022-2), MIT Lincoln Laboratory and A-Alpha Bio; data file from the FLAb repository.